From patent publication US10577395B2 (priority 2014, dated 2020)

Tested on: vancomycin-sensitive Staphylococcus aureus (VSSA strain ATCC 25923)
Assay: Antimicrobial assay, MIC, vancomycin-sensitive S. aureus
Type: cell-based
Description: Assays were carried out following the methods of Clinical and Laboratory Standards Institute; Methods for Dilution Antimicrobial Susceptibility Tests for Bacteria That Grow Aerobically; Approved Standard, […].; CLSI document M07-A8; Clinical and Laboratory Standards Institute: Wayne, Pa., 2009.
This diluted bacterial stock solution was then inoculated into a well of a V-shaped 96-well glass coated microtiter plate, supplemented with serial diluted aliquots of the antibiotic solution DMSO (4 μL), to achieve a total assay volume of 0.1 mL. The plate was then incubated at 37° C. for 18 hours, after which minimal inhibitory concentrations (MICs) were determined by monitoring the cell growth (observed as a pellet) in the wells. The lowest concentration of antibiotic (in μg/mL) capable of eliminating the cell growth in the wells is reported as the MIC.

CBP-[Ψ[CH2NH]Tpg^4]vancomycin [Compound 17]
MIC, sensitive S. aureus: 0.5 µg/mL
MIC, sensitive S. aureus, serum concentration 10% (10%): 0.5 µg/mL
MIC, sensitive S. aureus, serum concentration 25% (25%): 1 µg/mL
MIC, sensitive S. aureus, serum concentration 100% (100%): 2 µg/mL
